Experimental data: PubChem BioAssay AID781 (Emory University Molecular Libraries Screening Center, 2007)
Only a part is listed here, and it is no random draw. Calls of active or inactive are those of the source.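 How the source made its calls: active means inhibition above about 70% (limit read from the data); inactive means the rest.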

By UniProt entry, the sequences of proteins in these tests, tags left out. Where a name states a change or a piece, a line headed by the entry shows the natural chain unless it says otherwise.
UniProt P63103: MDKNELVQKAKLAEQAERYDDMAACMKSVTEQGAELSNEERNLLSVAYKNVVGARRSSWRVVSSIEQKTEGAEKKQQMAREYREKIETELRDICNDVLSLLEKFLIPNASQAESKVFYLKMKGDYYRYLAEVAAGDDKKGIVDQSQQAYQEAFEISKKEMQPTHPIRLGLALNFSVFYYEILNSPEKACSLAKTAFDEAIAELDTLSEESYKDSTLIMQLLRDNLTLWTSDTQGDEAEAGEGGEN

target: 14-3-3 protein zeta/delta (Bos taurus) (UniProt P63103); test: disruptors of 14-3-3 zeta phospho-Bad complex – biochemical, TR-FRET, bovine 14-3-3 zeta, primary screen (AID 781); conditions: TR-FRET 14-3-3zeta/Dy647-pBad peptide displacement, 1 h; at 21.7 µM; stronger effect = higher value;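 further: 0% = full 14-3-3 plus peptide FRET controls and 100% = background without 14-3-3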

| Compound | inhibition |
| --- | --- |
| CN(C)C(=O)OCCc1n(C)cc[n+]1C | inactive: 25.5% |
| CC(C)=N/N=C(\N)N[N+](=O)[O-] | inactive: -3.02% |
| COP1(=S)c2c(C)nn(CCC#N)c2N=C(c2ccc(F)cc2)N1C (stereo not drawn) | inactive: 4% |
| O=C(COc1ccccc1)OC1CN2CCC1CC2 (stereo not drawn) | inactive: -3.35% |
| CCOC(=O)c1ccc(NC(=O)C(C)(CCl)SC)cc1 (stereo not drawn) | inactive: -0.52% |
| CCC(C)N(CC(C)C)C(=S)SC(NC(C)=O)C(Cl)(Cl)Cl (stereo not drawn) | inactive: 3.94% |
| CCOC(=O)Nc1ccc([As](=O)(O)O)c(O)c1 | inactive: -0.75% |
| Cc1cc(SC(NC(=O)c2ccccc2)C(Cl)(Cl)Cl)nc(C(C)C)n1 (stereo not drawn) | inactive: 6.39% |
| CCOC(=O)Nc1cccc([As](=O)(O)O)c1 | inactive: -2.96% |
| O=P(Nc1ccccn1)(c1cccc2ccccc12)c1cccc2ccccc12 | inactive: -20.6% |
| Cc1cc(SC(NC=O)C(Cl)(Cl)Cl)ncn1 (stereo not drawn) | inactive: -1.79% |
| O=[N+]([O-])c1ccc(Nc2ccc(Oc3ccc([N+](=O)[O-])cc3[N+](=O)[O-])cc2)c([N+](=O)[O-])c1 | inactive: -4.43% |
| C[As](=O)(O)c1cccc(C(=O)O)c1 | inactive: -1.07% |
| O=[As](O)(c1ccc(O)cc1)c1ccccc1O | inactive: 11.9% |
| Cc1ccc(OP(=O)(Nc2ccc([N+](=O)[O-])cn2)Oc2ccc(C)cc2)cc1 | inactive: -0.79% |
| Cc1ccc2nc3c(c(C)c2c1)CC(C(Cl)Cl)S3 (stereo not drawn) | inactive: 2.78% |
| ClCCSc1nnc(-c2cccnc2)o1 | inactive: -12.3% |
| CC(C)c1ccc(OP(=O)(Nc2ccccn2)Oc2ccccc2F)cc1 (stereo not drawn) | inactive: -6.44% |
| O=[N+]([O-])c1cc([N+](=O)[O-])c(-c2ccn[nH]2)s1 | inactive: -1.26% |
| CC(C)NC(=O)NP(=O)(Oc1ccccc1)Oc1ccccc1 | inactive: -1.5% |
| CCN(CC)C(=S)SC(NC=O)C(Cl)(Cl)Cl (stereo not drawn) | inactive: -11.7% |

| Compound | inhibition |
| --- | --- |
| Cc1c2c(nc3ccccc13)SC(C(Cl)Cl)C2 (stereo not drawn) | inactive: 0.64% |
| Cc1cc(=O)[nH]c(N[N+](=O)[O-])n1 | inactive: -5.56% |
| O=C(OC1CN2CCC1CC2)C12CC3CC(CC(C3)C1)C2 (stereo not drawn) | inactive: 0.75% |
| COc1cc(I)ccc1[As](=O)(O)O | inactive: -0.38% |
| COc1ccc2nc(NP(=O)(c3ccccc3)c3ccccc3)sc2c1 | inactive: -7.31% |
| COc1ccc(N/C(=N/P(=O)(N2CCOCC2)N2CCOCC2)N2CCOCC2)cc1 | inactive: -5.37% |
| O=C(OC1CN2CCC1CC2)c1ccc(Cl)cc1 (stereo not drawn) | active: 95.4% |
| O=[As](O)(O)c1cccnc1 | inactive: 1.76% |
| COc1cc(C(=O)NCC2(N3CCOCC3)CCCCC2)cc(Cl)c1OC(C)C | inactive: -5.56% |
| Cc1cccc(OCC(=O)OC2CN3CCC2CC3)c1 (stereo not drawn) | inactive: 11.5% |
| O=[As](O)(c1cccc(O)c1)c1cccc(O)c1 | inactive: -6.72% |
| Nc1cccc2c([As](=O)(O)O)cccc12 | inactive: -4.17% |
| Cc1ccc(NCCc2c([N+](=O)[O-])cc([N+](=O)[O-])cc2[N+](=O)[O-])cc1 | inactive: -4.98% |
| CCCOP(=S)(Nc1nc(N)cc(=O)[nH]1)OCCC | inactive: 2.45% |
| CCOP(=O)(Nc1cccc2ccccc12)OCC | inactive: -12.6% |
| COc1cc(C2NCCC3(OCCO3)C2(C)C)cc(OC)c1OC (stereo not drawn) | inactive: 12% |
| O=P(Nc1nccs1)(Oc1ccccc1)Oc1ccccc1 | inactive: -8.49% |
| O=P(Nc1nccs1)(c1ccccc1)c1nc2ccccc2s1 (stereo not drawn) | inactive: 37.6% |
| CCOP1(=S)c2c(C)nn(CCC#N)c2N=C(c2ccccc2F)N1C (stereo not drawn) | inactive: 1.97% |
| CS(=O)(=O)c1cc([N+](=O)[O-])c2no[n+]([O-])c2c1 | inactive: 7.75% |
| Nc1ccccc1[As](=O)(O)c1ccccc1 | inactive: -4.32% |

| Compound | inhibition |
| --- | --- |
| O=C(O)COc1ccc([As](=O)(O)O)cc1[N+](=O)[O-] | inactive: 7% |
| NC(=O)Nc1ccc([As](=O)(O)O)cc1 | inactive: -6.1% |
| CN(C(=O)Cc1ccccc1)[C@@H]1CC[C@]2(CCCO2)C[C@H]1N1CCCC1 | inactive: -5.67% |
| CCOP1(=S)c2c(C)nn(CCC#N)c2N=C(c2ccc(F)cc2)N1C (stereo not drawn) | inactive: -5.01% |
| O=[N+]([O-])c1ccc2c(c1)nnn2O | inactive: 33.1% |
| CC1CCC(C(C)C)C(OP(=O)(Nc2ccccn2)c2ccccc2)C1 (stereo not drawn) | inactive: -2.69% |
| Cc1nn(-c2ccccc2)c2c1P(=O)(N1CCOCC1)N(C)C(c1ccccc1)=N2 (stereo not drawn) | inactive: -9.32% |
| CN(C)C1(CNC(=O)c2ccc(S(C)(=O)=O)cc2)CCCCC1 | inactive: -0.72% |
| O=C(/C=C/c1ccccc1)OC1CN2CCC1CC2 (stereo not drawn) | inactive: -1.71% |
| O=P1(Nc2ncccn2)COc2ccccc2OC1 | inactive: -9.76% |
| Nc1cccc([As](=O)(O)c2ccccc2)c1 | inactive: -0.44% |
| O=[As](O)(c1cccs1)c1cccs1 | inactive: -2.64% |
| Cc1ccc(OCC(=O)OC2CN3CCC2CC3)cc1 (stereo not drawn) | inactive: -0.4% |
| O=P1(Nc2ccc(Br)cn2)COc2ccccc2OC1 | inactive: -2.69% |
| O=P1(Nc2ccccn2)COc2ccccc2OC1 | inactive: 7.74% |
| CCOP(=O)(Nc1ccc(C)cn1)OCC | inactive: 2.2% |
| CC(C)(C)C(=O)NC(Sc1ncccn1)C(Cl)(Cl)Cl (stereo not drawn) | inactive: -15.7% |
| Clc1n[nH]nc1-c1nn[nH][15n]1 | inactive: 22.7% |
| CC(C)/C=N\N=C(\N)N[N+](=O)[O-] | inactive: -15.7% |
| CN(C(=O)Cc1ccc(Cl)c(Cl)c1)[C@@H]1CCCC[C@H]1N1CCCC1 | inactive: -2.47% |
| O=[As](O)(c1ccccc1Br)c1ccccc1Br | inactive: 1.3% |
